The series can be described thus: Water solubility in 100 g of water at 25° C. The text has this: As used herein, the term “solubility” in regard to water solubility includes cases where the sample completely dissolves in deionized water to form a homogeneous mixture, and cases where the sample is completely emulsified. As used herein, “completely” means that no mass of the sample remains in the deionized water.

Setting [1] is: in 100 g of deionized water at 25° C., 24 hours, visual evaluation.

Like-named read-outs stand apart in the source and are kept apart here.

From patent publication US10543132B2, “Absorbent article with blood modifying agent” (UNICHARM CORPORATION, priority 2011, dated 2020) come the findings set out here.

For the substance “Polyoxybutylenepolyoxypropylene glycol [UNIOL PB700]”, the “Water solubility” value is listed as less than 0.05 g. With Isopropyl Citrate, the “Water solubility (g)” value is 20< g.

Consider “Octadecanoic acid (C18) monoester of butylene glycol [COMPOL BS]”, for which, under setting [1], the “Water solubility” value was less than 0.05 g.

For “Stearyl ether of polypropylene glycol [UNILUBE MS-70K]”, the “Water solubility” value was less than 0.05 g. As for “Dodecanoic acid (C12) monoester of butylene glycol [COMPOL BL]”, the “Water solubility” value under setting [1] is recorded as less than 0.05 g.
